Experimental data from publication PMC12678819, “Targeting bacterial kinases as a strategy to counteract antibiotic resistance” (2025).

Chains of the proteins cited; added tags and fusions are not shown. Lines headed by an entry give the natural chain unless they say otherwise; changes in a name come on top. Residues count along the entry.
UniProt P34947, whole entry, looked up: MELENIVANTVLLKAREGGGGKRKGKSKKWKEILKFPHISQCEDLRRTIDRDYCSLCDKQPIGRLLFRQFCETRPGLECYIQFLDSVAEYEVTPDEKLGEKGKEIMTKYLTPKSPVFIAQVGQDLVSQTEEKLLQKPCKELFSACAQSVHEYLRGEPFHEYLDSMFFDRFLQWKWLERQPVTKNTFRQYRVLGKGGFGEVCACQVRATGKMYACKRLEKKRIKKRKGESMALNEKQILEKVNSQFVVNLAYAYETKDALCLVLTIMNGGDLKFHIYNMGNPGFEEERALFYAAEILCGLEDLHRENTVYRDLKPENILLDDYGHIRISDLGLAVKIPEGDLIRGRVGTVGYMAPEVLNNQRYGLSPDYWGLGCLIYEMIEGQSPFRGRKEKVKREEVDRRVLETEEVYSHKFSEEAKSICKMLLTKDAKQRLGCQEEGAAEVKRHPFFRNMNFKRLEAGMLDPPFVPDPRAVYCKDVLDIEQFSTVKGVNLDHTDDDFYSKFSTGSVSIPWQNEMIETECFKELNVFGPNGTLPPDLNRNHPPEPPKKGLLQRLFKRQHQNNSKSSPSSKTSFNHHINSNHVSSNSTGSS
UniProt P51955, 1-271 limits assumed: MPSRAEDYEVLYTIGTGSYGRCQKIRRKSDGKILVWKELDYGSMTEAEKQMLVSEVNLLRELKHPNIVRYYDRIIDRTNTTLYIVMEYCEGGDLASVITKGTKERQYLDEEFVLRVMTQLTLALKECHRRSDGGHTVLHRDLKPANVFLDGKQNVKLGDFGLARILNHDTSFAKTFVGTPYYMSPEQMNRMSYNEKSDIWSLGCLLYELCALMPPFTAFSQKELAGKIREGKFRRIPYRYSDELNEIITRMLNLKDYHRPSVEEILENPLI
UniProt P49674, 1-294 limits assumed: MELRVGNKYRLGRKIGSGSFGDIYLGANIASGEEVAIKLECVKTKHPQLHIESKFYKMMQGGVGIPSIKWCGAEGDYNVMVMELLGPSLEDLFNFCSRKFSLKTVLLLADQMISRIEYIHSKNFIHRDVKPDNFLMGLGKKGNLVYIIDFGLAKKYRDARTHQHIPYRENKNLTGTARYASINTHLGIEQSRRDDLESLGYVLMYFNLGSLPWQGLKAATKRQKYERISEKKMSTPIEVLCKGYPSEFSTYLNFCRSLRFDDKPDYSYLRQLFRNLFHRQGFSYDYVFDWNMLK
UniProt Q8IU85: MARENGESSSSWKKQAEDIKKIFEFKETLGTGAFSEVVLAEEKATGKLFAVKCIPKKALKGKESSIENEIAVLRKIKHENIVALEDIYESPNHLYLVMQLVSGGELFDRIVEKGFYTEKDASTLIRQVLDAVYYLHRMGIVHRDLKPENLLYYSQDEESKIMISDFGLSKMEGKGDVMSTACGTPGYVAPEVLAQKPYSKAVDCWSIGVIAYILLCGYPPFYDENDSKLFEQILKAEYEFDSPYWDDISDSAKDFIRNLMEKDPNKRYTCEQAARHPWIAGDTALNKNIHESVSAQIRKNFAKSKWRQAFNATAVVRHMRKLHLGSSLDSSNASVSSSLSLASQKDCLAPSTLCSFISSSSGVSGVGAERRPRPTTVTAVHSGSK
UniProt Q5VT25, 77-343 limits assumed: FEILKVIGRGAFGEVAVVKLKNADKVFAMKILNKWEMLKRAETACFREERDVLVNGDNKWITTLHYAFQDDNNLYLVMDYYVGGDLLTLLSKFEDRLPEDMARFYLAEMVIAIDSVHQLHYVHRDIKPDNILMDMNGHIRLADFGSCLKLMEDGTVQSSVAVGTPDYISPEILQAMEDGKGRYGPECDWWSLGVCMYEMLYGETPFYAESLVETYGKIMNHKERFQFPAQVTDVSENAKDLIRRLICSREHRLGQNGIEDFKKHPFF
UniProt O14936, 12-276 limits assumed: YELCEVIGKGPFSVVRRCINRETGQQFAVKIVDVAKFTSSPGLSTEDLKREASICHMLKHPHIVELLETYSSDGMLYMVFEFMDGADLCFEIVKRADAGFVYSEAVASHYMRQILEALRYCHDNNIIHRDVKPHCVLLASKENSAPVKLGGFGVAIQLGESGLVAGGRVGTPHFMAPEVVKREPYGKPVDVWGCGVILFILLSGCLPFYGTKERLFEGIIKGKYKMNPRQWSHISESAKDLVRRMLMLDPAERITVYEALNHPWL
UniProt O94804, 18-317 limits assumed: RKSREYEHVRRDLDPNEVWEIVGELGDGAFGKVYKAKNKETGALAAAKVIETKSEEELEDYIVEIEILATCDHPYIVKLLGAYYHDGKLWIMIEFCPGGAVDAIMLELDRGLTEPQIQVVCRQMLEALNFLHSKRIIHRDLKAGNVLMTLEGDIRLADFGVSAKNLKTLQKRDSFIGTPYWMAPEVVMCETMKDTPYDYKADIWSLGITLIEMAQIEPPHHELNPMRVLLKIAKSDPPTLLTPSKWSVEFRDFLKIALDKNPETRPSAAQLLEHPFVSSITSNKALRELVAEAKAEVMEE
UniProt P11309, whole entry, looked up: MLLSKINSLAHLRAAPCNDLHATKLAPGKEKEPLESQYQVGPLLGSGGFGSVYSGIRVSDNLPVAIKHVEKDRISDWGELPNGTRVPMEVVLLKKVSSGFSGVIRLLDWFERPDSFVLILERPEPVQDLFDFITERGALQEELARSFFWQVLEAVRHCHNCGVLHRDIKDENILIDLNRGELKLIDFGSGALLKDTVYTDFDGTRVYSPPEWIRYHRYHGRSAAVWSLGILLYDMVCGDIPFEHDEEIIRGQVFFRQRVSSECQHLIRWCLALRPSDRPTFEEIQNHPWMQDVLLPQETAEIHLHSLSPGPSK
UniProt Q96GD4, 77-327 limits assumed: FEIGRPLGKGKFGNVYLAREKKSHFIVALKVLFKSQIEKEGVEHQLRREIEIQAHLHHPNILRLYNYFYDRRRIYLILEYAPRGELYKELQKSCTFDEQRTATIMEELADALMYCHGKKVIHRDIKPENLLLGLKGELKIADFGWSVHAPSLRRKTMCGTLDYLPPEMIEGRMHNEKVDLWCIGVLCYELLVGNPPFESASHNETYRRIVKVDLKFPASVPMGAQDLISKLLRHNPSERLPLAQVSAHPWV
UniProt Q2M2I8, 46-315 limits assumed: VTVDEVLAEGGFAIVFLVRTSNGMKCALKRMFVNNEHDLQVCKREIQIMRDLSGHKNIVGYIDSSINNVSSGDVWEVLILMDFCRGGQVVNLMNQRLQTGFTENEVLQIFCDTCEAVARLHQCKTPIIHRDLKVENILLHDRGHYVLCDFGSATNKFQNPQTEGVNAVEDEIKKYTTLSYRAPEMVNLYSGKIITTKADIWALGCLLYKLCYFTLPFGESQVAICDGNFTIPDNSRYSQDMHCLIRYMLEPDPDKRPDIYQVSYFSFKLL
UniProt Q96SB4, 80-653 limits assumed: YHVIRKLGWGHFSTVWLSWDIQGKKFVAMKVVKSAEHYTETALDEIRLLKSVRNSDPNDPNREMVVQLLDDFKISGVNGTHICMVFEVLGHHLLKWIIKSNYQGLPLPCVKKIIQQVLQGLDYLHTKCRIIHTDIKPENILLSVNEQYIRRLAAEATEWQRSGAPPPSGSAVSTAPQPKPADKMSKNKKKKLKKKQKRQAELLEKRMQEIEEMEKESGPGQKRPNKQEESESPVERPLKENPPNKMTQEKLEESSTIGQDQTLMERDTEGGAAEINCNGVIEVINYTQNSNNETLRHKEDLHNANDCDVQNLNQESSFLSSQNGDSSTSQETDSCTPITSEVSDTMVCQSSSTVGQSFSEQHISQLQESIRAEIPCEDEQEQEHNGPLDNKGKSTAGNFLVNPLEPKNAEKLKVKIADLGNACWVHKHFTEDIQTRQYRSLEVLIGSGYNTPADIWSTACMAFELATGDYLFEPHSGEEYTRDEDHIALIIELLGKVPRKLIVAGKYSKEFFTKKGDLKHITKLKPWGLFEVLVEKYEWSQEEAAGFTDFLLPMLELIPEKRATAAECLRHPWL
UniProt Q9UEE5, 61-321 limits assumed: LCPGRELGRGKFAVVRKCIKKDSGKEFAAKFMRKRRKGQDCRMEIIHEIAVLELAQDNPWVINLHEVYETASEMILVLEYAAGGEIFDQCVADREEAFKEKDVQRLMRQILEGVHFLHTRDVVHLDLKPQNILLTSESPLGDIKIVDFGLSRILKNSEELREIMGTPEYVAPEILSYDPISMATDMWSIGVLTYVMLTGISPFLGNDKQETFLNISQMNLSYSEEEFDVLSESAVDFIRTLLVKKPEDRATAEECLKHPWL
UniProt Q9H2X6, 199-527 limits assumed: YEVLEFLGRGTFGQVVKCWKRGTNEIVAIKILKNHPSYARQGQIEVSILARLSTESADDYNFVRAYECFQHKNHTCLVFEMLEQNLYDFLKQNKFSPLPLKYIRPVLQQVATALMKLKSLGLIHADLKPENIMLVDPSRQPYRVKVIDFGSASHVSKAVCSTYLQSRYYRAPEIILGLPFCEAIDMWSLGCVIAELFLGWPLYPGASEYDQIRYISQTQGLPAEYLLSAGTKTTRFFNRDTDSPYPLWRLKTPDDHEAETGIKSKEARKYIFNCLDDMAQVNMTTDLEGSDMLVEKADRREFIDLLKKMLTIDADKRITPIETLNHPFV
UniProt Q9NSY1, 38-345 limits assumed: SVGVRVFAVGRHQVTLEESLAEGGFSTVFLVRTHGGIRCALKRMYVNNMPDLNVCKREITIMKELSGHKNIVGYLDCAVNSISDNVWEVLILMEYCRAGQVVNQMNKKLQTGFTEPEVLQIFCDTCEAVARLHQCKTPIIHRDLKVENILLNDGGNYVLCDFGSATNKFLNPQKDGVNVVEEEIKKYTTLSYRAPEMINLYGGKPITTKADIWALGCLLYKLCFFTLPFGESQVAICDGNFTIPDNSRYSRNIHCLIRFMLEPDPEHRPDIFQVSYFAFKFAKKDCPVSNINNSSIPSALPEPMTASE
UniProt Q96NX5, 23-277 limits assumed: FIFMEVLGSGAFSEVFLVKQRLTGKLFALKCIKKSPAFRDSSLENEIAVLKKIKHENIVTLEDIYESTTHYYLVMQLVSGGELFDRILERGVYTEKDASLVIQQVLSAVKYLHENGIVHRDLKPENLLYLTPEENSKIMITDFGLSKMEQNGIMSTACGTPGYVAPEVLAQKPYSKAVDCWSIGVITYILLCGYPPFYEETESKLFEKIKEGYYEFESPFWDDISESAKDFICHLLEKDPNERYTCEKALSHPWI
UniProt P27448, 56-307 limits assumed: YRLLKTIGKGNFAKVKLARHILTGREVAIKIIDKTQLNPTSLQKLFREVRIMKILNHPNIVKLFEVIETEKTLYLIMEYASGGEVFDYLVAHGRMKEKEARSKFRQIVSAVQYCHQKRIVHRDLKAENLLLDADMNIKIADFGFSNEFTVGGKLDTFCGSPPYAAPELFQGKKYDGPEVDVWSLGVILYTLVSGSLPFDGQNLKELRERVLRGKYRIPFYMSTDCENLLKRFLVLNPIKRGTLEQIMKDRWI
UniProt P33981, 525-791 limits assumed: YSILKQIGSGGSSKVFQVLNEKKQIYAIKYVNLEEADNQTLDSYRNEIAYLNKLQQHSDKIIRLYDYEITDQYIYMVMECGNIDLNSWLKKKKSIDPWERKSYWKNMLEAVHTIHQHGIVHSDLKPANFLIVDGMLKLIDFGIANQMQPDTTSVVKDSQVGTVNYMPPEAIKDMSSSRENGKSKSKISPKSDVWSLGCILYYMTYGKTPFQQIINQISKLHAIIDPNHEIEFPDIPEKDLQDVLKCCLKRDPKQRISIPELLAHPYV
UniProt Q9H4A3, 206-483 limits assumed: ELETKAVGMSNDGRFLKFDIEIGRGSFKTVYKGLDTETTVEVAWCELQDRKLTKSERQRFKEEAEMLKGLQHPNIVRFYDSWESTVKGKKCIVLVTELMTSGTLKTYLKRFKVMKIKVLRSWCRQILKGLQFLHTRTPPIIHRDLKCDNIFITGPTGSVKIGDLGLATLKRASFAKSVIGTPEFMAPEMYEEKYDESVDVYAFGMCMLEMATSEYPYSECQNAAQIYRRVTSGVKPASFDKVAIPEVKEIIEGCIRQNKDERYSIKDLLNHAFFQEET
UniProt P49759, 161-477 limits assumed: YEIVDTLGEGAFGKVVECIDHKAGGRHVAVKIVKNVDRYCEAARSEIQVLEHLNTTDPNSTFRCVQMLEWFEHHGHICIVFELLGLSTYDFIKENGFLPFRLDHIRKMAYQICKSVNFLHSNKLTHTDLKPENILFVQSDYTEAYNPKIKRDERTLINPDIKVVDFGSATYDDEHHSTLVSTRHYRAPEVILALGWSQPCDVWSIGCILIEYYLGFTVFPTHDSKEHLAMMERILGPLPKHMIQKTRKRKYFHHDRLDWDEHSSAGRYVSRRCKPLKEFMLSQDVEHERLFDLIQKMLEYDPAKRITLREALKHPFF
UniProt Q14680, 1-340 limits assumed: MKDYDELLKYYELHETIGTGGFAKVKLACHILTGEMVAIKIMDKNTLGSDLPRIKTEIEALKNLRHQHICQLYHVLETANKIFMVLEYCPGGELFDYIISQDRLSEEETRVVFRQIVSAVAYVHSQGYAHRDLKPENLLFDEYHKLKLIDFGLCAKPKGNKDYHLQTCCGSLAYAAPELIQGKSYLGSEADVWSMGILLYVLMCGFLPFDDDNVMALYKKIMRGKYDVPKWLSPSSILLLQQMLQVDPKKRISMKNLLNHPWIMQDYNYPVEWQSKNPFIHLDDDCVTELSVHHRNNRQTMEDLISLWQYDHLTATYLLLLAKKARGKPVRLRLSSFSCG

Columns and labels:
[1] = Plasma stability assay, mouse; conditions: 1 μg∙mL-1
[2] = Plasma protein binding, mouse; conditions: mouse, mean
ABL1 = ABL1 (Homo sapiens, UniProt P00519); experiment: DSF kinase panel; conditions: 10 μM
DYRK2 = DYRK2 (Homo sapiens, UniProt Q92630); experiment: DSF kinase panel; conditions: 10 μM
EPHB1 = EPHB1 (Homo sapiens, UniProt P54762); experiment: DSF kinase panel; conditions: 10 μM
CDK2 = CDK2 (Homo sapiens, UniProt P24941); experiment: DSF kinase panel; conditions: 10 μM
GPRK5 = GPRK5 (Homo sapiens, UniProt P34947); experiment: DSF kinase panel; conditions: 10 μM
NEK2 = NEK2 (Homo sapiens, UniProt P51955); experiment: DSF kinase panel; conditions: 10 μM
CSNK1E = CSNK1E (Homo sapiens, UniProt P49674); experiment: DSF kinase panel; conditions: 10 μM
RSK1_b = RSK1_b (Homo sapiens, UniProt Q15418); experiment: DSF kinase panel; conditions: 10 μM
TLK1 = TLK1 (Homo sapiens, UniProt Q9UKI8); experiment: DSF kinase panel; conditions: 10 μM
AurA = AurA (Homo sapiens, UniProt O14965); experiment: DSF kinase panel; conditions: 10 μM
CAMK2B = CAMK2B (Homo sapiens, UniProt Q13554); experiment: DSF kinase panel; conditions: 10 μM
CAMK1D = CAMK1D (Homo sapiens, UniProt Q8IU85); experiment: DSF kinase panel; conditions: 10 μM
MRCKa = MRCKa (Homo sapiens, UniProt Q5VT25); experiment: DSF kinase panel; conditions: 10 μM
CK2a1 = CK2a1 (Homo sapiens, UniProt P68400); experiment: DSF kinase panel; conditions: 10 μM
ULK3 = ULK3 (Homo sapiens, UniProt Q6PHR2); experiment: DSF kinase panel; conditions: 10 μM
CASK = CASK (Homo sapiens, UniProt O14936); experiment: DSF kinase panel; conditions: 10 μM
LOK = LOK (Homo sapiens, UniProt O94804); experiment: DSF kinase panel; conditions: 10 μM
PIM1 = PIM1 (Homo sapiens, UniProt P11309); experiment: DSF kinase panel; conditions: 10 μM
AURKB = AURKB (Homo sapiens, UniProt Q96GD4); experiment: DSF kinase panel; conditions: 10 μM
BMPR2 = BMPR2 (Homo sapiens, UniProt Q13873); experiment: DSF kinase panel; conditions: 10 μM
NEK1 = NEK1 (Homo sapiens, UniProt Q96PY6); experiment: DSF kinase panel; conditions: 10 μM
AAK1 = AAK1 (Homo sapiens, UniProt Q2M2I8); experiment: DSF kinase panel; conditions: 10 μM
FGFR1 = FGFR1 (Homo sapiens, UniProt P11362); experiment: DSF kinase panel; conditions: 10 μM
SRPK1 = SRPK1 (Homo sapiens, UniProt Q96SB4); experiment: DSF kinase panel; conditions: 10 μM
VRK1 = VRK1 (Homo sapiens, UniProt Q99986); experiment: DSF kinase panel; conditions: 10 μM
DRAK1 = DRAK1 (Homo sapiens, UniProt Q9UEE5); experiment: DSF kinase panel; conditions: 10 μM
HIPK2 = HIPK2 (Homo sapiens, UniProt Q9H2X6); experiment: DSF kinase panel; conditions: 10 μM
BIKE = BIKE (Homo sapiens, UniProt Q9NSY1); experiment: DSF kinase panel; conditions: 10 μM
CAMK1G = CAMK1G (Homo sapiens, UniProt Q96NX5); experiment: DSF kinase panel; conditions: 10 μM
MARK3 = MARK3 (Homo sapiens, UniProt P27448); experiment: DSF kinase panel; conditions: 10 μM
SRC = SRC (Homo sapiens, UniProt P12931); experiment: DSF kinase panel; conditions: 10 μM
PIM3 = PIM3 (Homo sapiens, UniProt Q86V86); experiment: DSF kinase panel; conditions: 10 μM
TTK = TTK (Homo sapiens, UniProt P33981); experiment: DSF kinase panel; conditions: 10 μM
CDKL1 = CDKL1 (Homo sapiens, UniProt Q00532); experiment: DSF kinase panel; conditions: 10 μM
WNK1 = WNK1 (Homo sapiens, UniProt Q9H4A3); experiment: DSF kinase panel; conditions: 10 μM
DYRK1A = DYRK1A (Homo sapiens, UniProt Q13627); experiment: DSF kinase panel; conditions: 10 μM
CLK1 = CLK1 (Homo sapiens, UniProt P49759); experiment: DSF kinase panel; conditions: 10 μM
DAPK3 = DAPK3 (Homo sapiens, UniProt O43293); experiment: DSF kinase panel; conditions: 10 μM
MELK = MELK (Homo sapiens, UniProt Q14680); experiment: DSF kinase panel; conditions: 10 μM
MAPK15 = MAPK15 (Homo sapiens, UniProt Q8TD08); experiment: DSF kinase panel; conditions: 10 μM
[3] = Metabolic stability assay, human microsomes

Structure (SMILES): Clc1cnc2[nH]ccc2c1-c1ccn[nH]1
- t1/2 mouse plasma [1]: > 4 h
- PPB mouse (%) [2]: 71.5 ± 19.3%
- ΔTm ABL1 (ABL1): 1.9 °C
- ΔTm DYRK2 (DYRK2): 2.3 °C
- ΔTm EPHB1 (EPHB1): 0.6 °C
- ΔTm CDK2 (CDK2): -0.2 °C
- ΔTm GPRK5 (GPRK5): 2.3 °C
- ΔTm NEK2 (NEK2): -1.5 °C
- ΔTm CSNK1E (CSNK1E): 1.0 °C
- ΔTm RSK1_b (RSK1_b): 0.2 °C
- ΔTm TLK1 (TLK1): -1.3 °C
- ΔTm AurA (AurA): 6.9 °C
- ΔTm CAMK2B (CAMK2B): -0.5 °C
- ΔTm CAMK1D (CAMK1D): 1.0 °C
- ΔTm MRCKa (MRCKa): 0.1 °C
- ΔTm CK2a1 (CK2a1): 0.7 °C
- ΔTm ULK3 (ULK3): 4.4 °C
- ΔTm CASK (CASK): 0.1 °C
- ΔTm LOK (LOK): -1.6 °C
- ΔTm PIM1 (PIM1): 0.7 °C
- ΔTm AURKB (AURKB): 6.5 °C
- ΔTm BMPR2 (BMPR2): 4.0 °C
- ΔTm NEK1 (NEK1): 0.3 °C
- ΔTm AAK1 (AAK1): 5.4 °C
- ΔTm FGFR1 (FGFR1): 1.8 °C
- ΔTm SRPK1 (SRPK1): -0.4 °C
- ΔTm VRK1 (VRK1): -0.4 °C
- ΔTm DRAK1 (DRAK1): 3.0 °C
- ΔTm HIPK2 (HIPK2): 0.3 °C
- ΔTm BIKE (BIKE): 9.6 °C
- ΔTm CAMK1G (CAMK1G): 1.0 °C
- ΔTm MARK3 (MARK3): 1.5 °C
- ΔTm SRC (SRC): -0.2 °C
- ΔTm PIM3 (PIM3): -0.1 °C
- ΔTm TTK (TTK): 0.8 °C
- ΔTm CDKL1 (CDKL1): -0.3 °C
- ΔTm WNK1 (WNK1): -0.2 °C
- ΔTm DYRK1A (DYRK1A): 1.4 °C
- ΔTm CLK1 (CLK1): 2.4 °C
- ΔTm DAPK3 (DAPK3): 1.6 °C
- ΔTm MELK (MELK): 2.5 °C
- ΔTm MAPK15 (MAPK15): 1.6 °C
- t1/2 human microsomes [3]: >1 h

Structure (SMILES): OC[C@H](O)Cn1cc(-c2c(Cl)cnc3[nH]ccc23)nn1
- ΔTm ABL1 (ABL1): 1.6 °C
- ΔTm DYRK2 (DYRK2): 3.9 °C
- ΔTm EPHB1 (EPHB1): 0.2 °C
- ΔTm CDK2 (CDK2): 0.2 °C
- ΔTm GPRK5 (GPRK5): 1.2 °C
- ΔTm NEK2 (NEK2): -1.5 °C
- ΔTm CSNK1E (CSNK1E): 2.9 °C
- ΔTm RSK1_b (RSK1_b): 1.0 °C
- ΔTm TLK1 (TLK1): -1.2 °C
- ΔTm AurA (AurA): 7.0 °C
- ΔTm CAMK2B (CAMK2B): 0.7 °C
- ΔTm CAMK1D (CAMK1D): 1.6 °C
- ΔTm MRCKa (MRCKa): 0.2 °C
- ΔTm CK2a1 (CK2a1): 1.0 °C
- ΔTm ULK3 (ULK3): 5.6 °C
- ΔTm CASK (CASK): -0.7 °C
- ΔTm LOK (LOK): -1.5 °C
- ΔTm PIM1 (PIM1): 0.8 °C
- ΔTm AURKB (AURKB): 6.0 °C
- ΔTm BMPR2 (BMPR2): 4.8 °C
- ΔTm NEK1 (NEK1): 0.7 °C
- ΔTm AAK1 (AAK1): 5.2 °C
- ΔTm FGFR1 (FGFR1): 1.3 °C
- ΔTm SRPK1 (SRPK1): -0.2 °C
- ΔTm VRK1 (VRK1): -0.3 °C
- ΔTm DRAK1 (DRAK1): 2.6 °C
- ΔTm HIPK2 (HIPK2): 1.0 °C
- ΔTm BIKE (BIKE): 9.1 °C
- ΔTm CAMK1G (CAMK1G): 1.6 °C
- ΔTm MARK3 (MARK3): 2.3 °C
- ΔTm SRC (SRC): 0.1 °C
- ΔTm PIM3 (PIM3): 0.8 °C
- ΔTm TTK (TTK): 1.6 °C
- ΔTm CDKL1 (CDKL1): 0.2 °C
- ΔTm WNK1 (WNK1): -0.2 °C
- ΔTm DYRK1A (DYRK1A): 1.0 °C
- ΔTm CLK1 (CLK1): 3.5 °C
- ΔTm DAPK3 (DAPK3): 4.5 °C
- ΔTm MELK (MELK): 3.7 °C
- ΔTm MAPK15 (MAPK15): 2.7 °C

Structure (SMILES): C[C@H](O)Cn1cc(-c2c(Cl)cnc3[nH]ccc23)nn1
- ΔTm ABL1 (ABL1): 1.7 °C
- ΔTm DYRK2 (DYRK2): 3.9 °C
- ΔTm EPHB1 (EPHB1): 0.3 °C
- ΔTm CDK2 (CDK2): 1.5 °C
- ΔTm GPRK5 (GPRK5): 1.1 °C
- ΔTm NEK2 (NEK2): -0.1 °C
- ΔTm CSNK1E (CSNK1E): 2.8 °C
- ΔTm RSK1_b (RSK1_b): 1.3 °C
- ΔTm TLK1 (TLK1): -0.4 °C
- ΔTm AurA (AurA): 7.0 °C
- ΔTm CAMK2B (CAMK2B): 0.7 °C
- ΔTm CAMK1D (CAMK1D): 1.3 °C
- ΔTm MRCKa (MRCKa): 0.5 °C
- ΔTm CK2a1 (CK2a1): 1.0 °C
- ΔTm ULK3 (ULK3): 6.3 °C
- ΔTm CASK (CASK): 0.1 °C
- ΔTm LOK (LOK): -1.1 °C
- ΔTm PIM1 (PIM1): 0.7 °C
- ΔTm AURKB (AURKB): 6.0 °C
- ΔTm BMPR2 (BMPR2): 5.3 °C
- ΔTm NEK1 (NEK1): 1.1 °C
- ΔTm AAK1 (AAK1): 5.1 °C
- ΔTm FGFR1 (FGFR1): 1.6 °C
- ΔTm SRPK1 (SRPK1): 0.0 °C
- ΔTm VRK1 (VRK1): -0.1 °C
- ΔTm DRAK1 (DRAK1): 4.0 °C
- ΔTm HIPK2 (HIPK2): 0.9 °C
- ΔTm BIKE (BIKE): 9.2 °C
- ΔTm CAMK1G (CAMK1G): 1.8 °C
- ΔTm MARK3 (MARK3): 2.5 °C
- ΔTm SRC (SRC): 0.2 °C
- ΔTm PIM3 (PIM3): 0.9 °C
- ΔTm TTK (TTK): 1.9 °C
- ΔTm CDKL1 (CDKL1): 0.6 °C
- ΔTm WNK1 (WNK1): -0.2 °C
- ΔTm DYRK1A (DYRK1A): 1.4 °C
- ΔTm CLK1 (CLK1): 4.1 °C
- ΔTm DAPK3 (DAPK3): 4.6 °C
- ΔTm MELK (MELK): 3.6 °C
- ΔTm MAPK15 (MAPK15): 3.2 °C

Structure (SMILES): C[C@@H](O)Cn1cc(-c2c(Cl)cnc3[nH]ccc23)nn1
- ΔTm ABL1 (ABL1): 1.7 °C
- ΔTm DYRK2 (DYRK2): 4.7 °C
- ΔTm EPHB1 (EPHB1): 0.3 °C
- ΔTm CDK2 (CDK2): 1.3 °C
- ΔTm GPRK5 (GPRK5): 0.9 °C
- ΔTm NEK2 (NEK2): -1.8 °C
- ΔTm CSNK1E (CSNK1E): 3.6 °C
- ΔTm RSK1_b (RSK1_b): 1.0 °C
- ΔTm TLK1 (TLK1): -1.1 °C
- ΔTm AurA (AurA): 7.0 °C
- ΔTm CAMK2B (CAMK2B): 0.0 °C
- ΔTm CAMK1D (CAMK1D): 0.9 °C
- ΔTm MRCKa (MRCKa): 0.1 °C
- ΔTm CK2a1 (CK2a1): 1.3 °C
- ΔTm ULK3 (ULK3): 6.3 °C
- ΔTm CASK (CASK): -0.5 °C
- ΔTm LOK (LOK): -1.6 °C
- ΔTm PIM1 (PIM1): 0.6 °C
- ΔTm AURKB (AURKB): 5.8 °C
- ΔTm BMPR2 (BMPR2): 5.4 °C
- ΔTm NEK1 (NEK1): 0.3 °C
- ΔTm AAK1 (AAK1): 4.8 °C
- ΔTm FGFR1 (FGFR1): 1.4 °C
- ΔTm SRPK1 (SRPK1): -0.1 °C
- ΔTm VRK1 (VRK1): -0.4 °C
- ΔTm DRAK1 (DRAK1): 2.9 °C
- ΔTm HIPK2 (HIPK2): 1.1 °C
- ΔTm BIKE (BIKE): 8.8 °C
- ΔTm CAMK1G (CAMK1G): 1.5 °C
- ΔTm MARK3 (MARK3): 2.6 °C
- ΔTm SRC (SRC): -0.1 °C
- ΔTm PIM3 (PIM3): -0.4 °C
- ΔTm TTK (TTK): 1.7 °C
- ΔTm CDKL1 (CDKL1): 0.5 °C
- ΔTm WNK1 (WNK1): 0.3 °C
- ΔTm DYRK1A (DYRK1A): 1.2 °C
- ΔTm CLK1 (CLK1): 4.5 °C
- ΔTm DAPK3 (DAPK3): 5.5 °C
- ΔTm MELK (MELK): 3.4 °C
- ΔTm MAPK15 (MAPK15): 3.0 °C
